According to patent US10570099B2, “Salts of an epidermal growth factor receptor kinase inhibitor” (Celgene CAR LLC, priority 2012, dated 2020):

system: not listed separately; test: Competitive slurry experiments Form I vs. Form III; format: physicochemical; details: Form I vs. Form III in acetone, isopropanol and isopropyl acetate, ambient and 60° C., ca. 3 days
Protocol: Competitive slurry experiments were set up in acetone, isopropanol, acetone:water (80:20) and isopropyl acetate at both room temperature (ca. 22° C.) and 60° C. Approximately 200 mg of each of Forms I and III material was placed into a vial and 4 mL of the appropriate solvent system was added to produce a slurry. For each experiment, the slurries were allowed to stir for ca. 3 days. Analysis by XRPD was then conducted to determine the form of the resultant solid. Competitive slurry experiments of Form I vs. Form III were carried out in 4 solvent systems and resulting solids were analysed by XRPD analysis (FIG. 82 and FIG. 83).

Row | SMILES | relative thermodynamic stability of forms
1 | Br.C=CC(=O)Nc1cccc(Nc2nc(Nc3ccc(N4CCN(C(C)=O)CC4)cc3OC)ncc2C(F)(F)F)c1 [Form I hydrobromide salt] | thermodynamically most stable form

system: not listed separately; test: Shake flask solubility of potential salts in aqueous medium (pH<2); format: physicochemical; details: pH<2, ca. 24 hours shaking, HPLC
Protocol: The solubility of the potential salts was tested using a shake flask method whereby a slurry of each salt was prepared in deionized water and the pH of the reaction was reduced to below pH 2 by adding a small amount of the counterion used for salt formation. The pH was tested using universal indicator paper.
(open vials). TGA was carried out after the stability studies for samples containing sufficient material.

Row | SMILES | Approximate Solubility
2 | C=CC(=O)Nc1cccc(Nc2nc(Nc3ccc(N4CCN(C(C)=O)CC4)cc3OC)ncc2C(F)(F)F)c1.O=S(=O)(O)c1cccc2c(S(=O)(=O)O)cccc12 | Below LOQ
3 | C=CC(=O)Nc1cccc(Nc2nc(Nc3ccc(N4CCN(C(C)=O)CC4)cc3OC)ncc2C(F)(F)F)c1.O=S(=O)(O)c1cccc2c(S(=O)(=O)O)cccc12.O=S(=O)(O)c1cccc2c(S(=O)(=O)O)cccc12 | Below LOQ
4 | C=CC(=O)Nc1cccc(Nc2nc(Nc3ccc(N4CCN(C(C)=O)CC4)cc3OC)ncc2C(F)(F)F)c1.O=S(=O)(O)c1ccccc1 [Besylate (1 equiv.) Form II] | 0.055 mg/mL
5 | C=CC(=O)Nc1cccc(Nc2nc(Nc3ccc(N4CCN(C(C)=O)CC4)cc3OC)ncc2C(F)(F)F)c1.O=S(=O)(O)c1ccccc1 [Besylate (1 equiv.) Form I] | 0.047 mg/mL
6 | C=CC(=O)Nc1cccc(Nc2nc(Nc3ccc(N4CCN(C(C)=O)CC4)cc3OC)ncc2C(F)(F)F)c1.O=S(=O)(O)c1ccccc1.O=S(=O)(O)c1ccccc1 [Besylate (2 equiv.) Form II] | 0.044 mg/mL
7 | C=CC(=O)Nc1cccc(Nc2nc(Nc3ccc(N4CCN(C(C)=O)CC4)cc3OC)ncc2C(F)(F)F)c1.CC1(C)C2CCC1(CS(=O)(=O)O)C(=O)C2 [Camphor-10-sulfonic acid (1 eq.) Form II] | 0.58 mg/mL
8 | C=CC(=O)Nc1cccc(Nc2nc(Nc3ccc(N4CCN(C(C)=O)CC4)cc3OC)ncc2C(F)(F)F)c1.CC1(C)C2CCC1(CS(=O)(=O)O)C(=O)C2 [Camphor-10-sulfonic acid (1 eq.) Form I] | 1.05 mg/mL
9 | C=CC(=O)Nc1cccc(Nc2nc(Nc3ccc(N4CCN(C(C)=O)CC4)cc3OC)ncc2C(F)(F)F)c1.CC1(C)C2CCC1(CS(=O)(=O)O)C(=O)C2.CC1(C)C2CCC1(CS(=O)(=O)O)C(=O)C2 [Camphor-10-sulfonic acid (2 eq.) Form I] | 0.89 mg/mL
10 | Br.C=CC(=O)Nc1cccc(Nc2nc(Nc3ccc(N4CCN(C(C)=O)CC4)cc3OC)ncc2C(F)(F)F)c1 [Form I hydrobromide salt] | 1.27 mg/mL
11 | Br.Br.C=CC(=O)Nc1cccc(Nc2nc(Nc3ccc(N4CCN(C(C)=O)CC4)cc3OC)ncc2C(F)(F)F)c1 [HBr (2 eq.) Form II] | 2.38 mg/mL
12 | C=CC(=O)Nc1cccc(Nc2nc(Nc3ccc(N4CCN(C(C)=O)CC4)cc3OC)ncc2C(F)(F)F)c1.Cl [Hydrochloride (1 equiv.) Form I] | 0.400 mg/mL
13 | C=CC(=O)Nc1cccc(Nc2nc(Nc3ccc(N4CCN(C(C)=O)CC4)cc3OC)ncc2C(F)(F)F)c1.Cl.Cl [Hydrochloride (2 equiv.) Form I] | 0.196 mg/mL
14 | C=CC(=O)Nc1cccc(Nc2nc(Nc3ccc(N4CCN(C(C)=O)CC4)cc3OC)ncc2C(F)(F)F)c1.O=C(O)/C=C\C(=O)O [Maleate Form III] | 0.251 mg/mL
15 | C=CC(=O)Nc1cccc(Nc2nc(Nc3ccc(N4CCN(C(C)=O)CC4)cc3OC)ncc2C(F)(F)F)c1.O=C(O)/C=C\C(=O)O [Maleate Form II] | 0.271 mg/mL
16 | C=CC(=O)Nc1cccc(Nc2nc(Nc3ccc(N4CCN(C(C)=O)CC4)cc3OC)ncc2C(F)(F)F)c1.O=C(O)/C=C\C(=O)O [Maleate Form I] | 0.168 mg/mL
17 | C=CC(=O)Nc1cccc(Nc2nc(Nc3ccc(N4CCN(C(C)=O)CC4)cc3OC)ncc2C(F)(F)F)c1.CS(=O)(=O)O.CS(=O)(=O)O [Mesylate Form I] | 7.286 mg/mL
18 | C=CC(=O)Nc1cccc(Nc2nc(Nc3ccc(N4CCN(C(C)=O)CC4)cc3OC)ncc2C(F)(F)F)c1.O=S(=O)(O)c1ccc2ccccc2c1.O=S(=O)(O)c1ccc2ccccc2c1 [Naphthalene-2-sulfonic acid (2 eq.) Form III] | 0.74 mg/mL
19 | C=CC(=O)Nc1cccc(Nc2nc(Nc3ccc(N4CCN(C(C)=O)CC4)cc3OC)ncc2C(F)(F)F)c1.O=S(=O)(O)c1ccc2ccccc2c1.O=S(=O)(O)c1ccc2ccccc2c1 [Naphthalene-2-sulfonic acid (2 eq.) Form II] | 0.86 mg/mL
20 | C=CC(=O)Nc1cccc(Nc2nc(Nc3ccc(N4CCN(C(C)=O)CC4)cc3OC)ncc2C(F)(F)F)c1.O=S(=O)(O)c1ccc2ccccc2c1.O=S(=O)(O)c1ccc2ccccc2c1 [Naphthalene-2-sulfonic acid (2 eq.) Form IV] | 0.76 mg/mL
21 | C=CC(=O)Nc1cccc(Nc2nc(Nc3ccc(N4CCN(C(C)=O)CC4)cc3OC)ncc2C(F)(F)F)c1.O=S(=O)(O)c1ccc2ccccc2c1.O=S(=O)(O)c1ccc2ccccc2c1 [Naphthalene-2-sulfonic acid (2 eq.) Form I] | 0.87 mg/mL
22 | C=CC(=O)Nc1cccc(Nc2nc(Nc3ccc(N4CCN(C(C)=O)CC4)cc3OC)ncc2C(F)(F)F)c1.O=C(O)C(=O)O [Oxalate Form II] | 0.22 mg/mL
23 | C=CC(=O)Nc1cccc(Nc2nc(Nc3ccc(N4CCN(C(C)=O)CC4)cc3OC)ncc2C(F)(F)F)c1.O=C(O)C(=O)O [Oxalate Form I] | 0.158 mg/mL
24 | C=CC(=O)Nc1cccc(Nc2nc(Nc3ccc(N4CCN(C(C)=O)CC4)cc3OC)ncc2C(F)(F)F)c1.Cc1ccc(S(=O)(=O)O)cc1 [Tosylate (1 equiv.) Form II] | 0.422 mg/mL
25 | C=CC(=O)Nc1cccc(Nc2nc(Nc3ccc(N4CCN(C(C)=O)CC4)cc3OC)ncc2C(F)(F)F)c1.Cc1ccc(S(=O)(=O)O)cc1 [Tosylate (1 equiv.) Form I] | 0.104 mg/mL
26 | C=CC(=O)Nc1cccc(Nc2nc(Nc3ccc(N4CCN(C(C)=O)CC4)cc3OC)ncc2C(F)(F)F)c1.Cc1ccc(S(=O)(=O)O)cc1.Cc1ccc(S(=O)(=O)O)cc1 [Tosylate (2 equiv.) Form II] | 0.303 mg/mL
27 | C=CC(=O)Nc1cccc(Nc2nc(Nc3ccc(N4CCN(C(C)=O)CC4)cc3OC)ncc2C(F)(F)F)c1.Cc1ccc(S(=O)(=O)O)cc1.Cc1ccc(S(=O)(=O)O)cc1 [Tosylate (2 equiv.) Form I] | 0.089 mg/mL

same assay, conditions: pH<2, ca. 24 hours shaking, HPLC, listed as Besylate (2 equiv.) Form I

Row | SMILES | Approximate Solubility [mg/mL]
28 | C=CC(=O)Nc1cccc(Nc2nc(Nc3ccc(N4CCN(C(C)=O)CC4)cc3OC)ncc2C(F)(F)F)c1.O=S(=O)(O)c1ccccc1.O=S(=O)(O)c1ccccc1 [bis-besylate salt] | 4.264

system: not listed separately; test: Thermodynamic solubility in media of various pH (HPLC; XRPD of excess solids); details: pH 3.0, Citrate/Phosphate, ca. 24 hours
Protocol: The remaining solids were also analysed by XRPD analysis to establish if any changes in the solid form occurred.
The remaining solids were also analysed by XRPD analysis to establish if any changes in the solid form occurred. For the buffer solutions, KCl/HCl was used for pH 1 and citrate/phosphate combinations for pH 3, 4.5 and 6.6.
The remaining solids were also analysed by XRPD analysis to establish if any changes in the solid form occurred. For the buffer solutions, KCl/HCl was used for pH 1 and citric acid/sodium citrate combinations for pH 3, 4.5 and 6.2.
The solids were then removed by filtration and tested by XRPD analysis. The mother liquors were analyzed by HPLC to determine API solubility.
For the buffer solutions, KCl/HCl was used for pH 1 and citrate/phosphate combinations for pH 3, 4.5 and 6.6 (10 mM). The pH of the solutions was also measured prior to HPLC analysis.

Row | SMILES | Thermodynamic Solubility [mg/mL]
29 | Br.C=CC(=O)Nc1cccc(Nc2nc(Nc3ccc(N4CCN(C(C)=O)CC4)cc3OC)ncc2C(F)(F)F)c1 [Form III hydrobromide salt] | 0.84

same assay, conditions: pH 6.6, Citrate/Phosphate, ca. 24 hours

Row | SMILES | Thermodynamic Solubility [mg/mL]
30 | Br.C=CC(=O)Nc1cccc(Nc2nc(Nc3ccc(N4CCN(C(C)=O)CC4)cc3OC)ncc2C(F)(F)F)c1 [Form III hydrobromide salt] | 0.42

system: mutant EGFR kinase; test: Inhibition of mutant EGFR kinase (enzymatic and cellular assays); format: biochemical; details: not given

Row | SMILES | selectivity for mutant EGFR as compared to wild-type (WT) EGFR
31 | C=CC(=O)Nc1cccc(Nc2nc(Nc3ccc(N4CCN(C(C)=O)CC4)cc3OC)ncc2C(F)(F)F)c1 [Compound 2] | selective inhibitor
